Two compounds from patent US20080260842A1, “PERMEATION ENHANCING COMPOSITIONS FOR ANTICHOLINERGIC AGENTS” (priority 2004, published 2008) can be followed below.

“And” between values parts separate entries of the source, which are not always exact repeats. Identical values can stand only once.

Series [1] is described as follows: Dose-ranging pharmacokinetic study of transdermal oxybutynin gel in healthy volunteers (Example 18). Conditions: for Ratio DEO:OXY (Cav): steady-state; for Treatment A/Treatment B Ratio - N-Desethyloxybutynin / Treatment A/Treatment B Ratio - N-Desethyloxybutynin, mean: plasmatic ratio of metabolite; for Treatment A/Treatment B Ratio - N-Desethyloxybutynin: individual subjects; for Treatment A/Treatment B Ratio - N-Desethyloxybutynin, mean: mean of subjects 1-8. The protocol: The study was an open-label, randomized, parallel, three-treatment, dose-ranging pharmacokinetic study. […] The subjects were aged 19 to 53 (mean 35) years.
The oxybutynin transdermal gel formulation contained 3% w/w of oxybutynin base in a hydroalcoholic non-occlusive matrix including the unique combination of permeation enhancers of the present invention. Three different doses of the gel were administered topically once a day during 20 consecutive days: treatment A consisted in a daily amount of 1.4 g applied gel, corresponding to 42 mg oxybutynin; treatment B consisted in a daily amount of 2.0 g applied gel, corresponding to 60 mg oxybutynin; and treatment C consisted in a daily amount of 2.8 g applied gel, corresponding to 84 mg oxybutynin.

Series [2] can be described thus: Pharmacokinetic study of R/S OXY and DEO enantiomers, transdermal oxybutynin gel (Example 20). Conditions: single-dose topical 84 mg OXY gel. Type of series: in vivo, human. The protocol:
Ten healthy volunteers (Asian Indians, 60% female) aged 18 to 35 (mean 29) years old were treated with 2.8 g of a formulation of the present invention containing 3% w/w of OXY base (84 mg OXY), administered topically as a single dose on the abdomen (700 cm^2).

Take `CCNCC#CCOC(=O)C(O)(c1ccccc1)C1CCCCC1` (centres unmarked) [N-desethyloxybutynin]: the results for the “Ratio DEO:OXY (Cav)” value in series [1] (Treatment A: 42 mg oxybutynin daily), in series [1] (Treatment B: 60 mg oxybutynin daily) and in series [1] (Treatment C: 84 mg oxybutynin daily) were 1.0, 0.9 and 1.3, respectively. The “Treatment A/Treatment B Ratio - N-Desethyloxybutynin” value in series [1] (scheduled time 192) is 0; in series [1] (scheduled time 216) it was 1.6 (2×) and 2.4141 (2×) and 0.987 (2×) and 1.9012 (2×) and 1.8422 (2×); in series [1] (scheduled time 240) it was 0.6358 (2×) and 2.2869 (2×) and 1.9864 (2×) and 1.3309 (2×); in series [1] (scheduled time 264) it was 1.5791 (2×) and 4.4699 (2×) and 1.7418 (2×) and 1.7913 (2×) and 1.6346 (2×) and 0.8027 (2×); in series [1] (scheduled time 288), 1.29 (2×) and 4.435 (2×) and 0.9392 (2×) and 1.166 (2×); in series [1] (scheduled time 312) it was 1.472 (2×) and 4.311 (2×) and 3.333 (2×) and 2.905 (2×). Besides, the “Treatment A/Treatment B Ratio - N-Desethyloxybutynin” value is 6.471 (2×) and 1.349 (2×) in series [1] (scheduled time 336); 1.162 (2×) and 2.017 (2×) and 1.977 (2×) and 2.408 (2×) and 1.306 (2×) in series [1] (scheduled time 360). The “Treatment A/Treatment B Ratio - N-Desethyloxybutynin, mean” value in series [1] (scheduled time 216) came to 1.71; in series [1] (scheduled time 240), 1.68; in series [1] (scheduled time 264) it was 1.95; in series [1] (scheduled time 336), 2.21; in series [1] (scheduled time 360) it was 1.97.
As for `CCNCC#CCOC(=O)[C@](O)(c1ccccc1)C1CCCCC1` [R-DEX], the “R-DEO Cmax levels relative to R-OXY Cmax levels” value in series [2] worked out at 1.8 fold.
